# Source: patent US12612362B2, “Anisomycin derivative and use of anisomycin and derivative thereof as GLP-1R agonist” (SHANXI MEDICAL UNIVERSITY, priority 2021, dated 2026)
# Protein sequences, listed by entry. Tags and fused reporters are not part of them. Residues count along the entry.
# UniProt P32301, 22-463: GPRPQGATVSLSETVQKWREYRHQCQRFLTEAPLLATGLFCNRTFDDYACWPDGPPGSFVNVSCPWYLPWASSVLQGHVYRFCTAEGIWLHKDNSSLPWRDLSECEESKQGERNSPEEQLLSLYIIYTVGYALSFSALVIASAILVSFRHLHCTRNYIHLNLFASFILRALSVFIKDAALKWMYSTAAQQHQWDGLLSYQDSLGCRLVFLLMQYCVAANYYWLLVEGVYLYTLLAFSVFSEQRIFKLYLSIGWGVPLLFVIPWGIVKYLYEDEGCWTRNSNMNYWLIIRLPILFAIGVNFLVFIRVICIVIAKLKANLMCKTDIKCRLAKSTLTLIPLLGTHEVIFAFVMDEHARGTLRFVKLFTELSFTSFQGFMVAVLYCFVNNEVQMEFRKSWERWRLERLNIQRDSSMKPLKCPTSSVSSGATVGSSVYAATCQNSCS
# Target: GLP-1R (Rattus norvegicus, UniProt P32301)
# Details: 11.1G, 10 μM anisomycin + 100 nM Exendin(9-39), n=7
smiles,measurement,value
"COc1ccc(C[C@H]2NC[C@H](O)[C@H]2OC(C)=O)cc1 [anisomycin, (2R,3S,4S)-2-[(4-methoxyphenyl)methyl]-3,4-pyrrolidinediol 3-acetate methyl ester]",effect of promoting insulin secretion in presence of Exendin(9-39),Exendin(9-39) blocks the effect of anisomycin promoting insulin secretion
